Assay results from ChEMBL document CHEMBL1201862, “PubChem BioAssay data set” (2004).
Values belong to the compound of their own block, whether it stands above or below them. The source made the active and inactive calls. Unless noted, no cut-off for these calls is given here.

Chains of the proteins cited; added tags and fusions are not shown.
UniProt P98170, whole entry: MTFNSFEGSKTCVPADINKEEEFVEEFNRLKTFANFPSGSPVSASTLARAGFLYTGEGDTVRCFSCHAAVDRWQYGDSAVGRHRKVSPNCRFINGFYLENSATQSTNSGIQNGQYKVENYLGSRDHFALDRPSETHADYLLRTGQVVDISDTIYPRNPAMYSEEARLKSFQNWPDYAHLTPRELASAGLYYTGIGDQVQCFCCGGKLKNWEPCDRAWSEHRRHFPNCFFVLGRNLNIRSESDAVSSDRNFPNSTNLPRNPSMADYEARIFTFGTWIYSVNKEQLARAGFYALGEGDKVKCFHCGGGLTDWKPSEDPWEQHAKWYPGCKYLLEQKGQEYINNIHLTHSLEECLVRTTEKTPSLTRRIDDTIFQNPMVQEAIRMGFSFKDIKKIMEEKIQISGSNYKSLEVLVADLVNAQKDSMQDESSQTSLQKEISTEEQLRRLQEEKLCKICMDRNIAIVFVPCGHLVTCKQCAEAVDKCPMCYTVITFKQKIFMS
UniProt P35372, whole entry: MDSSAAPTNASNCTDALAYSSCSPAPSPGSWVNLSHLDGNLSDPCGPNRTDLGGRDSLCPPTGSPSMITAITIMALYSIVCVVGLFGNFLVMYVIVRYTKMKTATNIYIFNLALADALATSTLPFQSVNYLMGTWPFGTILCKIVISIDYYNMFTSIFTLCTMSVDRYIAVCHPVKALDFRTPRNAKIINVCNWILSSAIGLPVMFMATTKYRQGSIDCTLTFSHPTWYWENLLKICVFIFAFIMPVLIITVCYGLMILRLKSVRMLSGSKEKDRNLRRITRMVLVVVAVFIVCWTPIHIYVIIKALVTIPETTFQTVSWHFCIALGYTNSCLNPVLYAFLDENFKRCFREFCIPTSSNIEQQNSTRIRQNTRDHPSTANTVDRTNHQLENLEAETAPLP
UniProt P10635, whole entry: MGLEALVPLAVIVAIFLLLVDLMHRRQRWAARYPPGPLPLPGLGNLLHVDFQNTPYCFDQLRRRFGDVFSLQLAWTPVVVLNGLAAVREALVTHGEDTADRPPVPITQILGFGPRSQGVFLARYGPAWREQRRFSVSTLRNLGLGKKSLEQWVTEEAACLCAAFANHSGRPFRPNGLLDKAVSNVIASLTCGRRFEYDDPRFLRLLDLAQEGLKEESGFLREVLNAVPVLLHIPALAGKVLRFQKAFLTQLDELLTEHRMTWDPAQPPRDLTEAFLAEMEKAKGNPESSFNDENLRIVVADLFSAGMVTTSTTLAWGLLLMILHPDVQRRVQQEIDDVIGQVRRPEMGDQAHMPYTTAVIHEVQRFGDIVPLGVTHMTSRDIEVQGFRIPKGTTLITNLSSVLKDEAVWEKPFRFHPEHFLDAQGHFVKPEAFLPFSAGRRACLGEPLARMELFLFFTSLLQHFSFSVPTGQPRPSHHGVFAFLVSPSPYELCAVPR

Assays:
[1] = biological target: T1, E3 ubiquitin-protein ligase XIAP (Homo sapiens, UniProt P98170); test: SAR analysis of Antagonists of IAP-family anti-apoptotic proteins. [Related pubchem assays (depositor defined):AID1018, AID1449, AID1513, AID1514, AID1638]
[2] = biological target: T1, E3 ubiquitin-protein ligase XIAP; test: SAR analysis of Antagonists of XIAP-Bir3 domain of IAP-family anti-apoptotic proteins. [Related pubchem assays (depositor defined):AID1018, AID1449, AID1513, AID1514, AID1638]
[3] = biological target: Mu-type opioid receptor (Homo sapiens, UniProt P35372); assay type: functional, cell-based;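 note: U2OS cells with beta-arrestin recruitment to OPRM1 by beta-gal complementation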
[4] = biological target: Cytochrome P450 2D6 (Homo sapiens, UniProt P10635);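 note: CYP2D6 member of a cytochrome P450 panel assay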

IC50 [1]: active: 3.1 µM
IC50 [2]: active: 0.79 µM
SMILES: CC(C)[C@H](NC(=O)[C@H](C)N)C(=O)N1CCC[C@H]1C(=O)NC(c1ccccc1)c1ccccc1

SMILES: CN1C[C@H](C(=O)NC2(C)OC3(O)[C@@H]4CCCN4C(=O)[C@H](Cc4ccccc4)N3C2=O)CC2c3cccc4[nH]cc(c34)C[C@H]21 (some centres undefined)
EC50 [3]: inactive: 92.5 µM

AC50 [4]: inconclusive: 7.94 µM
SMILES: COc1cc(N[C@@H](C)CCCN)c2ncccc2c1
